According to patent publication US20160326142A1, “PYRAZOLE CARBOXAMIDE COMPOUNDS, COMPOSITIONS AND METHODS OF USE” (Genentech, Inc., priority 2012, published 2016):

These compounds were tested against T1, ITK (Homo sapiens, UniProt Q08881) (assay: ITK enzyme assay (Caliper or LCMS peptide phosphorylation)). Conditions: purified ITK (Invitrogen PV3875), 20 μM ATP, Ki by Morrison's quadratic equation.
T1 construct: purchased Invitrogen PV3875
T1 sequence (Q08881 1-620): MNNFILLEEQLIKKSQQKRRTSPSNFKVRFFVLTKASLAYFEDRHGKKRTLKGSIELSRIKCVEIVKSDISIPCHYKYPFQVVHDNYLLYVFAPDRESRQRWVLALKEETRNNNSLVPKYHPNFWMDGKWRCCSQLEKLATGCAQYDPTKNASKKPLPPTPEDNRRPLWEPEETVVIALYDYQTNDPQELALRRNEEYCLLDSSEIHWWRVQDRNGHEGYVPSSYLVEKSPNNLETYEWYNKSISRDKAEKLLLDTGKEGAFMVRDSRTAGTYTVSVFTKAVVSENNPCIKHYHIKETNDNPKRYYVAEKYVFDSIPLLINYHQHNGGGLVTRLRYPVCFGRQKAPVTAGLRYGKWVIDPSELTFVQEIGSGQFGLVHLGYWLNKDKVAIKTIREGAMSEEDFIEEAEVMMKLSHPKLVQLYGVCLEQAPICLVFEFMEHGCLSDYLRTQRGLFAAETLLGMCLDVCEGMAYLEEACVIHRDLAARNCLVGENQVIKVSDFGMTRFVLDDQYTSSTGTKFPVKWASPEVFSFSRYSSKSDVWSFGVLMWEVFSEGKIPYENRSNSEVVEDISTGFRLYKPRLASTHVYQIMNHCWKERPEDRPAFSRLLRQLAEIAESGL
Format: biochemical
Method: The ability of purified ITK (Invitrogen PV3875) to catalyze peptide phosphorylation is monitored using a Caliper LabChip 3000 microfluidic unit (Caliper assay) or by liquid chromatography-mass spectrometry (LCMS) using a Waters Acquity system (LCMS assay). […] Reactions are quenched by the addition of 2,2′,2″,2′″-(ethane-1,2-diyldinitrilo)tetraacetic acid (50 mM final). Non-phosphorylated substrate and phosphorylated product peptides are separated and quantified using a Caliper LabChip 3000 instrument. […] Reactions are quenched by the addition of trichloroacetic acid (5% v/v final). Non-phosphorylated substrate and phosphorylated product peptides are separated by ultra performance LC and detected by a coupled triple quadrupole MS device applying multiple reaction monitoring (MRM) for quantification. The area of the MRM-extracted mass signal is used to assess the inhibition by test compounds. Equilibrium dissociation constant (Ki) values for ITK inhibitors are calculated from plots of activity vs. inhibitor concentration using Morrison's quadratic equation that accounts for the potential of tight binding, and by also applying the conversion factor that accounts for competitive inhibition and the concentration of ATP used in the assay relative to its apparent Michaelis constant (Km,app).

Ki	Compound
190 nM	O=C(Nc1cnn(Cc2ccccc2)c1)c1n[nH]c2c1CC1CC1C2 (single isomer, unassigned) [Example 22a, N-(1-benzyl-1-pyrazol-4-yl)-1,4,4a,5,5a,6-hexahydrocyclopropa[f]indazole-3-carboxamide]
37 nM	O=C(Nc1cnn(Cc2ccccc2)c1)c1n[nH]c2c1CC1CC1C2 (single isomer, unassigned) [Example 22b, N-(1-benzyl-1-pyrazol-4-yl)-1,4,4a,5,5a,6-hexahydrocyclopropa[f]indazole-3-carboxamide]
180 nM	COC1(C)CCc2c(C(=O)Nc3cnn(Cc4ccccc4)c3)n[nH]c2C1 (single isomer, unassigned) [Example 48a, N-(1-benzyl-1H-pyrazol-4-yl)-6-methoxy-6-methyl-4,5,6,7-tetrahydro-1H-indazole-3-carboxamide]
280 nM	COC1(C)CCc2c(C(=O)Nc3cnn(Cc4ccccc4)c3)n[nH]c2C1 (single isomer, unassigned) [Example 48b, N-(1-benzyl-1H-pyrazol-4-yl)-6-methoxy-6-methyl-4,5,6,7-tetrahydro-1H-indazole-3-carboxamide]

Further lines, the compound ahead of its results:

Compound	Ki
CC1CCc2c(C(=O)Nc3cnn(Cc4ccccc4)c3)n[nH]c2C1 (single isomer, unassigned) [Example 9a, N-(1-benzyl-1H-pyrazol-4-yl)-6-methyl-4,5,6,7-tetrahydro-1H-indazole-3-carboxamide]	83 nM
CC1CCc2c(C(=O)Nc3cnn(Cc4ccccc4)c3)n[nH]c2C1 (single isomer, unassigned) [Example 9b, N-(1-benzyl-1H-pyrazol-4-yl)-6-methyl-4,5,6,7-tetrahydro-1H-indazole-3-carboxamide]	22 nM
CC1(CO)CCc2c(C(=O)Nc3cnn(Cc4ccccc4)c3)n[nH]c2C1 (single isomer, unassigned) [Example 19b, N-(1-benzyl-1H-pyrazol-4-yl)-6-(hydroxymethyl)-6-methyl-4,5,6,7-tetrahydro-1H-indazole-3-carboxamide]	7.9 nM
Cc1cccc(C(CCN(C)C)n2cc(NC(=O)c3n[nH]c4c3CCC(C)(C)C4)cn2)c1 (single isomer, unassigned) [Example 36a, N-(1-(3-(dimethylamino)-1-(m-tolyl)propyl)-1H-pyrazol-4-yl)-6,6-dimethyl-4,5,6,7-tetrahydro-1H-indazole-3-carboxamide]	0.7 nM
O=C(Nc1cnn(Cc2ccccc2)c1)c1n[nH]c2c1CCC1(CCOC1)C2 (single isomer, unassigned) [Example 65b, N-(1-benzyl-1H-pyrazol-4-yl)-1′,4,4′,5,5′,7′-hexahydro-2H-spiro[furan-3,6′-indazole]-3′-carboxamide]	56 nM
CC1(C)CCc2c(C(=O)Nc3cnn(Cc4ccccc4)c3)n[nH]c2C1 [Example 6, N-(1-benzyl-1H-pyrazol-4-yl)-6,6-dimethyl-4,5,6,7-tetrahydro-1H-indazole-3-carboxamide]	5.3 nM
CC1(C)CCc2[nH]nc(C(=O)Nc3cnn(Cc4ccccc4)c3)c2C1 [Example 7, N-(1-benzyl-1H-pyrazol-4-yl)-5,5-dimethyl-4,5,6,7-tetrahydro-1H-indazole-3-carboxamide]	69 nM
O=C(Nc1cnn(Cc2ccccc2)c1)c1n[nH]c2c1CCC1(CC1)C2 [Example 11, N-(1-benzyl-1H-pyrazol-4-yl)-1′,4′,5′,7′-tetrahydrospiro[cyclopropane-1,6′-indazole]-3′-carboxamide]	10 nM
O=C(Nc1cnn(Cc2ccccc2)c1)c1n[nH]c2c1CCC1(COC1)C2 [Example 12, N-(1-benzyl-1H-pyrazol-4-yl)-1,4,5,7-tetrahydrospiro[indazole-6,3′-oxetane]-3-carboxamide]	75 nM
O=C(Nc1cnn(Cc2ccccc2)c1)c1n[nH]c2c1CCC(F)(F)C2 [Example 18, N-(1-benzyl-1H-pyrazol-4-yl)-6,6-difluoro-4,5,6,7-tetrahydro-1H-indazole-3-carboxamide]	180 nM
CC1(CO)CCc2c(C(=O)Nc3cnn(Cc4ccccc4)c3)n[nH]c2C1 (stereo not shown) [Example 19a, N-(1-benzyl-1H-pyrazol-4-yl)-6-(hydroxymethyl)-6-methyl-4,5,6,7-tetrahydro-1H-indazole-3-carboxamide]	130 nM
O=C(Nc1cnn(Cc2ccccc2)c1)c1n[nH]c2c1CCC1(CCOC1)C2 (stereo not shown) [Example 65a, N-(1-benzyl-1H-pyrazol-4-yl)-1′,4,4′,5,5′,7′-hexahydro-2H-spiro[furan-3,6′-indazole]-3′-carboxamide]	42 nM
